Screening data as filed in PubChem.
An excerpt weighted towards active compounds, which were near 1.2% of everything screened.
Rce1 inhib: inhibitors of yeast Ras-converting enzyme; 0.27% of 290,000 active; AID 2563; yeast membranes, quenched prenylated peptide cleavage fluorescence; calls only; Q03530;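 active = fall in fluorescence gain of 50% or more versus controls, with final raw signal at or below 3038400; inconclusive = same 50% fall but final raw signal above 3038400; inactive = fall in fluorescence gain under 50%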;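 note: plate controls were neutral control wells for no effect and wells lacking membranes for full effect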
TbMetRS inhib: blocks T. brucei methionyl-tRNA synthetase activity | 0.4% of 360,000 active | AID 624268 | inhibition, % at 11.9 µM | purified T. brucei MetRS, ATP depletion, Kinase-Glo luminescence;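 active = inhibition above a per-plate cutoff of the control wells' mean inhibition plus 3 SD, cut at about 5.5% in these data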;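 note: 0% = DMSO wells median and 100% = median of wells with control inhibitor compound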
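Dosing: 11.9 µM single point; system: parasite MetRS enzyme; technique: luminescence of leftover ATP; times: 15 min enzyme-compound preincubation, 2 h reaction, 10 min detection, 25 °C; replicates: each compound tested once; read-out basis: percent inhibition relative to median high and low control wells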
Yeast UUG start: modulators of yeast start codon fidelity, primary screen, whole organism, S. cerevisiae, single point, plate reader; S. cerevisiae UUG-firefly luciferase reporter, luminescence/redox ratio; activity score, % at 18.7 µM; actives 0.13% (n = 350,000); AID 602363, 2012;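 active = replicate mean at a twofold rise or more, about +100% in these data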;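 also: firefly luciferase made from a UUG start codon reports start codon fidelity; reporter light over untreated wells divided by growth signal over untreated wells; some hits fall short of that in this replicate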
Pemphigus Ab inh: human desmoglein-3 autoantibody binding inhibition; DSG3-coupled beads, scFv-anti-DSG3-GFP binding, flow cytometry; stronger effect = lower value; binding (percent of control), % at 10 µM; 0.48% of 310,000 active; AID 588358;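 active = binding more than 3 SD below its plate's average and above zero; inconclusive = below that plate limit but binding exactly zero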;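 note: hits lower antibody fragment binding to DSG3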
Arr AP2 block: human beta-arrestin and AP2 interaction inhibition | 0.31% of 340,000 active | inhibition, % at 10 µM | FITC-arrestin peptide / GST-AP2 beads, flow cytometry; AP2 beta2 appendage carries R879A mutation | AID 504490;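 active = inhibition above a set limit, near 3 SD of compounds lacking own fluorescence, cut at about 54% in these data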;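 note: plate controls were DMSO wells for no effect and 5 µM unlabelled arrestin peptide for full effect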
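System: GST-AP2 R879A glutathione beads; medium: PBS, Tween 20 0.05%, BSA 0.1%; reagent: fluorescein-tagged arrestin peptide at 50 nM final; schedule: pre-incubation 12 min, peptide binding 1 h, room temperature; detection: flow cytometry, FL1 (488/535 nm); read-out: inhibition as reduced fluorescein signal on beads, percent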
Arr AP2 CP1: blocks beta-arrestin peptide binding to human AP2. shares compounds with Arr AP2 block. GST-AP2 beads, FITC arrestin peptide binding, flow cytometry; GST-fused beta2-adaptin appendage, R879A mutant. inhibition, % at 10 µM. 2% of 1,300 active;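 active = inhibition above a set limit, roughly 3 SD of non-fluorescent compound noise, cut at about 38% in these data; inactive = inhibition at or below that limit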;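 note: loss of bead fluorescence from 50 nM FITC arrestin peptide bound to appendage; 0% = negative control wells and 100% = excess unlabelled arrestin peptide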
GST-FITC bead: GST-GSH bead binding interference, counter-screen. GST-fluorescein binding to GSH beads, fluorescence. inhibition, % at 10 µM. AID 588338. shares compounds with Arr AP2 block. 2% of 1,300 active;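 active = inhibition above 50%, about 3 SD of the inhibition seen with non-fluorescent compounds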;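 note: fluorescein maleimide labelled GST captured on 4 micron glutathione beads; higher means more loss of bead fluorescence from quenching or blocked binding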
Active calls of the source: *; i = inactive; ? = inconclusive; / = no result.

[1] COCCNC(=O)C[C@H]1CC[C@@H]2[C@@H](COc3ccc(NC(=O)Nc4cccc(F)c4)cc3C(=O)N2C)O1
[2] O=C1N/C(=C/c2cccn2-c2ccccc2)C(=O)N1Cc1ccc(F)cc1
[3] O=C1N/C(=C/c2cccn2-c2ccc(F)cc2)C(=O)N1Cc1ccccc1F
[4] O=C(C[C@H]1C[C@H]2c3cc(NC(=O)C4CCC4)ccc3O[C@H]2[C@H](CO)O1)NC1CCCCC1
[5] COC(=O)c1ccccc1N/C=C1\CCc2c(c(C)nn2-c2ccccn2)C1=O
[6] COC(=O)c1ccccc1NC(=O)CN1CCN(c2ccccn2)CC1
[7] Cc1ccccc1N1CC(=O)N(c2ccccc2C)CC1=O
[8] Cc1cccc2c1c1ccc3c(c1n2C)C(=O)C=CC3=O

| screen / no. | 1 | 2 | 3 | 4 | 5 | 6 | 7 | 8 |
| --- | --- | --- | --- | --- | --- | --- | --- | --- |
| Rce1 inhib | / | i | i | / | i | i | i | / |
| TbMetRS inhib | / | 0.1 | -0.7 | / | -0.2 | -0.3 | -0.3 | -0.7 |
| Yeast UUG start | 0.8 | -15.0 | / | 0.5 | -8.6 | / | 4.3 | -6.4 |
| GST-FITC bead | / | / | 1.8 | / | 15.3 | / | / | 0.2 |
| Arr AP2 block | / | 0.7 | 105.2* | / | 55.6* | -5.7 | 0.0 | 67.2* |
| Pemphigus Ab inh | / | 83.7 | 89.6 | / | / | 100.5 | 116.3 | 117.3 |
| Arr AP2 CP1 | / | / | 7.8 | / | 55.4* | / | / | 49.4* |

[9] C[C@@H]1CN([C@H](C)CO)C(=O)c2cc(NC(=O)CCC(F)(F)F)ccc2O[C@@H]1CN(C)S(=O)(=O)c1cn(C)cn1
[10] O=C(O)CCC(=O)NNC(=O)c1cccc(Br)c1
[11] COC(=O)CCC(=O)NNC(=O)c1cccc(Br)c1
[12] COCCn1c(SCC(=O)NCc2ccco2)nnc1C(C)C
[13] COCCCn1c(C)nnc1SCC(=O)NCc1ccco1
[14] CCOC(=O)c1c(NC(=O)c2ccc(Br)o2)sc(C)c1CC
[15] C[C@H](CO)N1C[C@H](C)[C@@H](CN(C)C(=O)Nc2ccc(F)cc2)Oc2ccc(NC(=O)NC3CCCCC3)cc2CC1=O
[16] COc1ccc(CN(C)C[C@@H]2Oc3c(NC(=O)c4ccncc4)cccc3C(=O)N([C@@H](C)CO)C[C@H]2C)cc1

| screen / no. | 9 | 10 | 11 | 12 | 13 | 14 | 15 | 16 |
| --- | --- | --- | --- | --- | --- | --- | --- | --- |
| Rce1 inhib | / | i | i | i | i | i | / | / |
| TbMetRS inhib | / | -1.1 | -1.2 | 0.0 | -0.6 | 0.0 | / | / |
| Yeast UUG start | 14.0 | / | -3.3 | 2.0 | -29.8 | / | 20.3 | -2.0 |
| GST-FITC bead | / | -5.5 | / | / | 0.1 | -9.7 | / | / |
| Arr AP2 block | / | 58.3* | 10.8 | -6.1 | 54.5* | 98.3* | / | / |
| Pemphigus Ab inh | / | 102.6 | 103.1 | 101.5 | / | 111.1 | / | / |
| Arr AP2 CP1 | / | 0.3 | / | / | 5.8 | -0.5 | / | / |

[17] COCc1ccc(CN2CCC(C(=O)Nc3cccc(-c4cscn4)c3)CC2)o1
[18] COCc1ccc(CN2CCC(C(=O)Nc3cccc(-c4cccc(Cl)c4)c3)CC2)o1
[19] Cc1ccccc1-c1ccc([C@@H]2[C@H](CO)N3CCCCN(S(C)(=O)=O)C[C@@H]23)cc1
[20] CNC[C@H]1Oc2ccc(NS(=O)(=O)c3ccc(F)cc3)cc2C(=O)N([C@H](C)CO)C[C@@H]1C
[21] COC(=O)Cc1c(C)c2ccc(O)c(CN3CCCC(C)C3)c2oc1=O (stereo not given)
[22] CCc1c(C)c2ccc(O)c(CN3CCCC3)c2oc1=O
[23] CNS(=O)(=O)c1cccc(C(=O)OC2CCOC2=O)c1 (stereo not given)
[24] O=C(OC1CCOC1=O)c1cccc(S(=O)(=O)Nc2cccc(Cl)c2)c1 (stereo not given)

| screen / no. | 17 | 18 | 19 | 20 | 21 | 22 | 23 | 24 |
| --- | --- | --- | --- | --- | --- | --- | --- | --- |
| Rce1 inhib | i | / | / | / | ? | ? | i | i |
| TbMetRS inhib | -0.2 | -0.6 | / | / | -0.2 | -1.7 | -0.1 | -1.3 |
| Yeast UUG start | -14.8 | -2.0 | 3.5 | 22.5 | -4.7 | 2.0 | -2.5 | / |
| GST-FITC bead | / | -0.3 | / | / | -4.3 | / | / | -4.2 |
| Arr AP2 block | -4.5 | 56.6* | / | / | 104.9* | -6.9 | -9.3 | 62.7* |
| Pemphigus Ab inh | / | 108.4 | / | / | 103.2 | 117.8 | / | 124.3 |
| Arr AP2 CP1 | / | 9.1 | / | / | -3.2 | / | / | -10.1 |

[25] COCC(C)n1c(SCC(=O)NC(=O)Nc2ccc3c(c2)OCCO3)nc2ccccc2c1=O (stereo not given)
[26] COCC(C)n1c(SCC(=O)NC(=O)Cc2ccccc2)nc2ccccc2c1=O (stereo not given)
[27] CC12CN3CC(C)(CN(C1)C3c1ccc(Br)cc1O)C2 (stereo not given)
[28] C[C@H](CO)N1C[C@H](C)[C@H](CN(C)C(=O)CCC(F)(F)F)OCCCC[C@H](C)Oc2ccc(NS(=O)(=O)c3cccs3)cc2C1=O
[29] O=c1[nH]c2ccc(NC(=S)Nc3ccc(Cl)cc3Cl)cc2[nH]1
[30] O=c1[nH]c2ccc(NC(=S)Nc3ccccc3Cl)cc2[nH]1
[31] CCC(NC(=O)CCc1ccccc1)c1ccccc1 (stereo not given)
[32] C[C@H](CO)N1C[C@H](C)[C@H](CN(C)Cc2ccc(Cl)c(Cl)c2)Oc2ccc(NS(=O)(=O)c3cccs3)cc2C1=O

| screen / no. | 25 | 26 | 27 | 28 | 29 | 30 | 31 | 32 |
| --- | --- | --- | --- | --- | --- | --- | --- | --- |
| Rce1 inhib | / | / | i | / | i | i | i | / |
| TbMetRS inhib | -1.0 | -0.1 | -1.4 | / | -0.7 | -1.4 | -0.4 | / |
| Yeast UUG start | 8.5 | -16.2 | -8.7 | 97.3 | -10.0 | -28.5 | / | -2.3 |
| GST-FITC bead | -11.2 | / | 0.5 | / | / | -3.6 | -1.6 | / |
| Arr AP2 block | 55.5* | -4.3 | 23.1 | / | 4.2 | 55.3* | 61.5* | / |
| Pemphigus Ab inh | 101.3 | 110.8 | 107.4 | / | 98.1 | 107.5 | 106.0 | / |
| Arr AP2 CP1 | 8.2 | / | -7.3 | / | / | 3.2 | -1.4 | / |

4 of the compounds above, in markdown:
| No. | Compound | Rce1 inhib | TbMetRS inhib | Yeast UUG start | GST-FITC bead | Arr AP2 block | Pemphigus Ab inh | Arr AP2 CP1 |
| --- | --- | --- | --- | --- | --- | --- | --- | --- |
| 13 | COCCCn1c(C)nnc1SCC(=O)NCc1ccco1 | i | -0.6 | -29.8 | 0.1 | 54.5* | / | 5.8 |
| 14 | CCOC(=O)c1c(NC(=O)c2ccc(Br)o2)sc(C)c1CC | i | 0.0 | / | -9.7 | 98.3* | 111.1 | -0.5 |
| 15 | C[C@H](CO)N1C[C@H](C)[C@@H](CN(C)C(=O)Nc2ccc(F)cc2)Oc2ccc(NC(=O)NC3CCCCC3)cc2CC1=O | / | / | 20.3 | / | / | / | / |
| 16 | COc1ccc(CN(C)C[C@@H]2Oc3c(NC(=O)c4ccncc4)cccc3C(=O)N([C@@H](C)CO)C[C@H]2C)cc1 | / | / | -2.0 | / | / | / | / |

(further entries)
[33] C[C@@H]1CN([C@H](C)CO)C(=O)c2cccc(NC(=O)c3ccncc3)c2O[C@@H]1CN(C)C(=O)NC1CCCCC1
[34] COc1cc(NC(=O)C(C)Oc2ccccc2)c(C(=O)O)cc1OC (stereo not given)
[35] COc1ccc(NC(=O)C2CCCN(S(=O)(=O)c3c(C)[nH]c(=O)[nH]c3=O)C2)cc1OC (stereo not given)
[36] C[C@@H]1CCCCO[C@@H](CN(C)C)[C@@H](C)CN([C@H](C)CO)C(=O)c2cc(NS(C)(=O)=O)ccc2O1
[37] CN1C(=O)c2cc(NC(=O)Nc3ccc(F)cc3)ccc2OC[C@H]2O[C@H](CC(=O)NC3CCC3)CC[C@@H]21
[38] COc1cc(/C=C2/C(=O)N=C(N)N2C)cc(OC)c1OC
[39] C/C(=N\NC(=O)c1ccccc1OCCOc1ccccc1)c1ccccc1F
[40] CCOc1cc(CNc2ccc(N3CCCC3)cc2)cc(Cl)c1OC

| screen / no. | 33 | 34 | 35 | 36 | 37 | 38 | 39 | 40 |
| --- | --- | --- | --- | --- | --- | --- | --- | --- |
| Rce1 inhib | / | i | i | / | / | i | / | i |
| TbMetRS inhib | / | -0.1 | -0.8 | / | / | -0.4 | -0.3 | -0.4 |
| Yeast UUG start | -12.7 | -7.7 | / | -15.2 | 12.2 | -22.2 | -9.5 | -32.4 |
| GST-FITC bead | / | -4.6 | -3.1 | / | / | 4.0 | -1.4 | 13.2 |
| Arr AP2 block | / | -0.7 | 60.5* | / | / | 84.1* | 75.7* | 55.0* |
| Pemphigus Ab inh | / | / | 107.0 | / | / | 102.4 | ? | 124.0 |
| Arr AP2 CP1 | / | -5.7 | -9.6 | / | / | 10.6 | -16.8 | 2.4 |

[41] O=c1[nH]c(Cc2ccccc2)nc2c1oc1ccccc12
[42] O=c1[nH]c(CO)nc2c1oc1ccccc12
[43] N#Cc1c(N)sc(=S)c2c1CCCC2
[44] C[C@H](CO)N1C[C@H](C)[C@@H](CN(C)C(=O)c2ccccc2)Oc2ncc(-c3ccc(C#N)cc3)cc2C1=O
[45] O=C(NNc1cccc(Cl)n1)c1ccccc1CC[N+](=O)[O-]
[46] N#C[C@@H]1[C@@H](c2ccc(/C=C/c3ccccc3)cc2)[C@@H](CO)N1C(=O)C1CCC1

| screen / no. | 41 | 42 | 43 | 44 | 45 | 46 |
| --- | --- | --- | --- | --- | --- | --- |
| Rce1 inhib | i | i | i | / | i | / |
| TbMetRS inhib | -1.1 | -0.2 | -0.1 | / | -0.6 | / |
| Yeast UUG start | 1.2 | -15.1 | / | -4.8 | -17.7 | 4.1 |
| GST-FITC bead | / | 8.7 | -2.7 | / | -6.6 | / |
| Arr AP2 block | 10.2 | 72.5* | 89.2* | / | 55.1* | / |
| Pemphigus Ab inh | 101.9 | 98.3 | 103.8 | / | 98.6 | / |
| Arr AP2 CP1 | / | -9.0 | -3.3 | / | 4.1 | / |
